Yeast mating assay 1: variants of the scFv Ab-14

Binding partner: SARS-CoV-2 spike HR2 peptide, sequence PDVDLGDISGINAS.

Parent: Ab-14, a human scFv built as VH, a (GGGGS)3 linker, VL. Only the CDRs of the light chain vary.
VH: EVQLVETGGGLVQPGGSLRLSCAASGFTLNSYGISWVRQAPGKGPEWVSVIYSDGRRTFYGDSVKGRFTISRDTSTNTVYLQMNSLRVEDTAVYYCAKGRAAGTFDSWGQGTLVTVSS
VL: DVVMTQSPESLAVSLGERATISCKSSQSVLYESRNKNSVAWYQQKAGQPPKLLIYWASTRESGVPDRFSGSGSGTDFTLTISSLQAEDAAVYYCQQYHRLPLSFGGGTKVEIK

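Library AAYL50 holds single substitutions and randomly drawn double and triple substitutions in the CDRs. The assay is AlphaSeq: two haploid yeast populations carry antibody and antigen on their surface. The frequency of each diploid, read from paired DNA barcodes, reflects how well the two displayed proteins bind. A regression on co-assayed BCL2-family reference pairs converts the normalised counts of each replicate to an apparent Kd. Each pool was mated in three replicate cultures.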

Positions count from residue 1 of the parent VL; Q96W puts W in place of Q.
The read-out is the apparent dissociation constant on a log10 scale (nM): the lower, the stronger.
The mean shown is taken over the replicates in which the pair was detected.
A pair that was not seen in any replicate is written "nd"; this usually means weak binding, but a binder can also be missed.

| changes | mean log10 Kd (nM) | replicates with signal |
|---|---|---|
| Q96W+R99S+L100I | 3.07 | 1/3 |
| S26P+S28A+N37Q | 0.27 | 3/3 |
| K24F+E61M+S103I | 1.45 | 3/3 |
| S28R+V39N+S58R | nd | 0/3 |
| K24R+L30V+A40L | 3.83 | 1/3 |
| R34F+Q95K+Q96L | nd | 0/3 |
| R34S+W56Y+H98Y | nd | 0/3 |
| R60C+L100E+P101R | 4.72 | 1/3 |
| Q27K+R34K+E61C | 0.92 | 3/3 |
| L30Q+S58K+Y97P | nd | 0/3 |
| S25E+S28R+Q95R | 4.69 | 3/3 |
| S28T+R60P+R99A | 2.75 | 3/3 |
| K24V+K36M+R99V | 0.91 | 3/3 |
| N35D+W56K+S58T | 0.41 | 3/3 |
| Q27A+L30W | 1.74 | 3/3 |
| V39H+A57N+S62A | 2.80 | 1/3 |
| A40E+A57F+E61S | nd | 0/3 |
| S26C+R60F | 2.78 | 1/3 |
| S58K+Q95F | 3.72 | 3/3 |
| R60H+Q95F+H98T | 3.86 | 1/3 |
| V29D+R34H | 0.75 | 3/3 |
| S26L+R34D+L100I | 1.97 | 3/3 |
| V29W+Q95T+Q96K | 0.47 | 3/3 |
| S38V+A57M+P101Y | nd | 0/3 |
| R34G+N37V+A40H | nd | 0/3 |
| Y31H+E32C+V39H | nd | 0/3 |
| K24S+S33R+N35M | 2.79 | 3/3 |
| V39C+W56P+T59C | nd | 0/3 |
| S58N+Y97F | nd | 0/3 |
| Y31P+R34H+P101C | 2.66 | 3/3 |
| W56S+H98I+S103F | 0.35 | 3/3 |
| S58G+P101N+S103L | nd | 0/3 |
| N35C+K36N+E61K | 3.05 | 3/3 |
| V39D+Q96I | 3.77 | 1/3 |
| N35Q+S38Y+S62L | 2.99 | 1/3 |
| K24C+A57D+Q95E | nd | 0/3 |
| S28Q+N35V+E61W | 3.19 | 3/3 |
| Y31L+S33I+Q96G | 4.32 | 2/3 |
| K24H+N37Q+Y97M | 1.76 | 3/3 |
| E32V+W56D+S62P | 0.68 | 3/3 |
| A40V+A57S+L102R | nd | 0/3 |
| N35K+S38Y+Y97A | nd | 0/3 |
| Y31L+E61A+P101D | 4.01 | 2/3 |
| R34Y+N35D+Q95C | nd | 0/3 |
| S26T+Q96S | 1.47 | 2/3 |
| L100H+L102K | 4.98 | 1/3 |
| S28L+V39P+R99S | nd | 0/3 |
| S26G+Q96E+S103K | nd | 0/3 |
| V39E+R60E+Q96P | 4.41 | 1/3 |

The last 4 entries again:

changes,mean log10 Kd (nM),replicates with signal
L100H+L102K,4.98,1/3
S28L+V39P+R99S,nd,0/3
S26G+Q96E+S103K,nd,0/3
V39E+R60E+Q96P,4.41,1/3

As a blank, each scFv also met three strains without target: over library AAYL50, 18% of these pairings were detected, typically at 4.19 and seldom below 2.99.

Data: MIT Lincoln Laboratory AlphaSeq set, Engelhart et al. 2022, doi:10.1038/s41597-022-01779-4, as distributed in FLAb.